Literature values, collected in patent publication US20240115547A1, “PSYCHOTROPIC AGENTS AND USES THEREOF” (LB PHARMACEUTICALS INC., priority 2021, published 2024).

By UniProt entry, the sequences of proteins in these tests, tags left out. Residues count along the entry.
UniProt P34969, 1-445 isoform P34969-2: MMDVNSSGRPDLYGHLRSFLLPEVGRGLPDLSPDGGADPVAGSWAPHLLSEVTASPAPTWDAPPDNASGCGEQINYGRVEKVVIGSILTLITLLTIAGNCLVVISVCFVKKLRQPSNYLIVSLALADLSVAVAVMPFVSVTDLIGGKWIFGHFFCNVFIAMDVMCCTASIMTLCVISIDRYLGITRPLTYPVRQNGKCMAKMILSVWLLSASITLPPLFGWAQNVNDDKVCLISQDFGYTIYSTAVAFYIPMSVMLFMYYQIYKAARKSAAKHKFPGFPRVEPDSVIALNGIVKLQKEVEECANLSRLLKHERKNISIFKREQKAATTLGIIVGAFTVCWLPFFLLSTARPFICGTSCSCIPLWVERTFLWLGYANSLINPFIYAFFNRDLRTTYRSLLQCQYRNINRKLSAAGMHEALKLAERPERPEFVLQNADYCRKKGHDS

Target: HT7a (Homo sapiens, UniProt P34969)
Details: cited from earlier work

Question: With `CCN1CCCC1CNC(=O)c1cc(S(=O)(=O)CC)c(N)cc1OC` (stereo not shown) [amisulpride, 4-amino-N-(((1-ethyl-2-pyrrolidinyl)methyl)-5-(ethylsulfonyl))-2-methoxybenzamide] as the molecule, how does the “Ki HT7a” value read?
Answer: low double digit
